Assay results from patent US9963458B2, “Indole and indoline-type piperidine compounds and uses thereof” (priority 2012, dated 2018).

Sequences of proteins named here, by UniProt entry; tags and fusion partners are left off. A change or cut given only in a name is not applied to a line headed by its entry.
UniProt P05177, whole entry, looked up: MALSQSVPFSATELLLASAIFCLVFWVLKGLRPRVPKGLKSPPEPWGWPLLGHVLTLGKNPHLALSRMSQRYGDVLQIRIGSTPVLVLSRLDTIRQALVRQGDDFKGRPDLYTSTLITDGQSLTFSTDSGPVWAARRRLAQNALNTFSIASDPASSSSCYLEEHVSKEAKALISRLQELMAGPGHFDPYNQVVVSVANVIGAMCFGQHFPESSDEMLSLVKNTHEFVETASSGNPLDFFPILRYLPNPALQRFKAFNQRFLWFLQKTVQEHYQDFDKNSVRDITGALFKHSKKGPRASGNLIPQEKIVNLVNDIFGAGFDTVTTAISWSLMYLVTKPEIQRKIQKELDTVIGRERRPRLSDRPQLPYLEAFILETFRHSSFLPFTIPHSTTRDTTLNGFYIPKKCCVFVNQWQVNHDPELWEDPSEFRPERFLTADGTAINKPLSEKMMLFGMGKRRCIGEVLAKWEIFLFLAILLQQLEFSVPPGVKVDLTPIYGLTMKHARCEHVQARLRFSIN
UniProt P08684, whole entry, looked up: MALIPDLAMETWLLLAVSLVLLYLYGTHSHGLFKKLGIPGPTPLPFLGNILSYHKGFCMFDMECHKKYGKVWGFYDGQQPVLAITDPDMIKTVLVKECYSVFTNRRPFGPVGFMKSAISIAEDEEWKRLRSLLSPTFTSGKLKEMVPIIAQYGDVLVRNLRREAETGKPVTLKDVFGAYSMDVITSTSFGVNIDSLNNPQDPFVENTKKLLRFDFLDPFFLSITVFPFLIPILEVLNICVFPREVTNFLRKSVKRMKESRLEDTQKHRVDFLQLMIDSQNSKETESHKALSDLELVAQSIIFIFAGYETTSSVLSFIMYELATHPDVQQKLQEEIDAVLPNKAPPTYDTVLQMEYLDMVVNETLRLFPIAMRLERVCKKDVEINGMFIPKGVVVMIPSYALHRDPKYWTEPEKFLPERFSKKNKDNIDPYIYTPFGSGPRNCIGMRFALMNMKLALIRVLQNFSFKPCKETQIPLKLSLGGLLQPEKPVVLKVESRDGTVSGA
UniProt P11712, whole entry, looked up: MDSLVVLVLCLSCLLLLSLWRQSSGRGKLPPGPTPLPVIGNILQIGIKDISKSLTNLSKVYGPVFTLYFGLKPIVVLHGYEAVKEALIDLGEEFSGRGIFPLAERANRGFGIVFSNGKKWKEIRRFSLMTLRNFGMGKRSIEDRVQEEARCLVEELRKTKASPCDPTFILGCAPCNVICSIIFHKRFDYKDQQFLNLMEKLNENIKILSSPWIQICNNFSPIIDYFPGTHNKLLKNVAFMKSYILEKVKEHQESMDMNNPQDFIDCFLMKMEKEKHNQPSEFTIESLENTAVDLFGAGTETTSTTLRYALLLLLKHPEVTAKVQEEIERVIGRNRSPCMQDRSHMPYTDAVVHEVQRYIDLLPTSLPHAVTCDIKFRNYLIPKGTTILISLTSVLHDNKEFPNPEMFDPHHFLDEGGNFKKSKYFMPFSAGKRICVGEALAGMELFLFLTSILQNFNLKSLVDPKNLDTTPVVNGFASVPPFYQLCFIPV
UniProt P10635, whole entry, looked up: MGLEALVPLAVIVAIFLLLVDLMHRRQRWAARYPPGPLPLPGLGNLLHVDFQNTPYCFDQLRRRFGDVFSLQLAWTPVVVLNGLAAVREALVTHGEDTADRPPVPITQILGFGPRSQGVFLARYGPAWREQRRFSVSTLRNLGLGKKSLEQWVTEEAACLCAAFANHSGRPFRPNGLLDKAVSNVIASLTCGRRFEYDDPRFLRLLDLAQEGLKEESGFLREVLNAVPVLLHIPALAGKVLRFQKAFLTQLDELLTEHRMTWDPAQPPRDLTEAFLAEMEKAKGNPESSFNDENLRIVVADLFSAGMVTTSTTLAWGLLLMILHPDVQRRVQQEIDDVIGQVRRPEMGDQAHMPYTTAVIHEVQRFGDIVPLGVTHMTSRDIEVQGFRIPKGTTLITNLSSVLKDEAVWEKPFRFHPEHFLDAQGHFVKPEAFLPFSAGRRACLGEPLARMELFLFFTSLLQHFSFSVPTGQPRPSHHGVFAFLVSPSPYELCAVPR
UniProt P41146: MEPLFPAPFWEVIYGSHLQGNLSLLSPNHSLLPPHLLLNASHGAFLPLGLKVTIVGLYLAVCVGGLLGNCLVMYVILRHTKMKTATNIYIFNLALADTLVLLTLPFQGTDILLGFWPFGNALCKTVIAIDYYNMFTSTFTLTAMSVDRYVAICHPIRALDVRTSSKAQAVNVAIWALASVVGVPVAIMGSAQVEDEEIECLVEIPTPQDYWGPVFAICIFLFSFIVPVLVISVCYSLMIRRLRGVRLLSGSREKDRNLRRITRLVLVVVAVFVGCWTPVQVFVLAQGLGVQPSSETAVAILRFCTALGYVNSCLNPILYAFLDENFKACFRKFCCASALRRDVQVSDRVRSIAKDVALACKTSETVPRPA

Key:
CYP1A2 = CYP1A2 (Homo sapiens, UniProt P05177); assay: Cytochrome P450 inhibition, pooled human hepatic microsome; type: in vitro ADME; details: read-out: Cytochrome P450 CYP1A2 IC50, procedure of Example 14
CYP3A4 = CYP3A4 (Homo sapiens, UniProt P08684); assay: as above; type: in vitro ADME; details: read-out: Cytochrome P450 CYP3A4 IC50, procedure of Example 14
CYP2C9 = CYP2C9 (Homo sapiens, UniProt P11712); assay: as above; type: in vitro ADME; details: read-out: Cytochrome P450 CYP2C9 IC50, procedure of Example 14
CYP2D6 = CYP2D6 (Homo sapiens, UniProt P10635); assay: Cytochrome P450 inhibition, pooled human hepatic microsome (O-demethylation of dextromethorphan); type: in vitro ADME; details: read-out: Cytochrome P450 CYP2D6 IC50, procedure of Example 14
[1] = biological target: T1, human opioid receptor-like (ORL-1) (Homo sapiens, UniProt P41146); assay: In vitro ORL-1 receptor binding assay ([3H]-nociceptin displacement); details: read-out: ORL-1 Ki; Average ± Std Deviation; procedure of Example 6
[2] = biological target: T1, human opioid receptor-like (ORL-1); assay: ORL-1 receptor [35S]GTPγS functional binding assay; type: biochemical; details: mean ± SEM; procedure of Example 7

Compound | IC50 (CYP1A2) [µM] | IC50 (CYP3A4) [µM] | IC50 (CYP2C9) [µM] | IC50 (CYP2D6) [µM] | Ki [1] [µM] | ORL-1 GTPγS Emax [2] [%]
O=C(O)C(=O)c1cn([C@H]2C[C@H]3CCC[C@@H](C2)N3[C@H]2C[C@@H]3CCC[C@@H](C3)C2)c2ccccc12 | > 20 | > 20 | > 20 | > 20 | – | –
2-(1-((1R,3r,5S)-9-cyclodecyl-9-azabicyclo[3.3.1]nonan-3-yl)-1H-indol-3-yl)-2-oxoacetic acid | > 20 | > 20 | > 20 | 3.25 | 0.00584 | 100 ± 5.51
NC(=O)C(=O)c1cn([C@H]2C[C@H]3CCC[C@@H](C2)N3[C@H]2C[C@@H]3CCC[C@@H](C3)C2)c2ccccc12 | > 20 | > 20 | > 20 | > 20 | – | –
